In ChEMBL document CHEMBL1122729, “Nonquaternary cholinesterase reactivators. 2. Alpha-heteroaromatic aldoximes and thiohydroximates as reactivators of ethyl methylphosphonyl-acetylcholinesterase in vitro” (1984):

Legend:
[1] = Biomolecular rate constant(kn) for reaction of oximate with 7.5*10e-4 M AcSCh in 0.1 M phosphate buffer
[2] = Rate constant(Ko) for spontaneous hydrolysis of 7.5*10e-4 M AcSCh in 0.1 M phosphate buffer
[3] = Dissociation constant (pKa in 0.1 M buffer)
[4] = Biomolecular rate constant(Kn) for reaction with 7.5*10e-4 M EPMP under pseudo-zero-order conditions
[5] = Biomolecular rate constant for reactivation and measure of the inherent reactivity of the oximate form of the reactivator at the concentration 1.00 mM [HOX] in the conditions of 25degreeC,pH 7.6; conditions: pH 7.6, 1000 µM
[6] = Partition coefficient (logP); conditions: octanol/water
[7] = Effective biomolecular rate constant at the concentration 1.00 mM [HOX] in the conditions of 25degreeC,pH 7.6; conditions: pH 7.6, 1000 µM
[8] = Effective biomolecular rate constant at the concentration 0.767 mM [HOX] in the conditions of 25degreeC,pH 7.6; conditions: pH 7.6, 767 µM
[9] = Biomolecular rate constant for reactivation and measure of the inherent reactivity of the oximate form of the reactivator at the concentration 0.767 mM [HOX] in the conditions of 25degreeC,pH 7.6; conditions: pH 7.6, 767 µM
[10] = Effective biomolecular rate constant at the concentration 0.790 mM [HOX] in the conditions of 25degreeC,pH 7.6; conditions: pH 7.6, 790 µM
[11] = Biomolecular rate constant for reactivation and measure of the inherent reactivity of the oximate form of the reactivator at the concentration 0.790 mM [HOX] in the conditions of 25degreeC,pH 7.6; conditions: pH 7.6, 790 µM
[12] = Effective biomolecular rate constant in the conditions of 25degreeC,pH 7.6
[13] = Biomolecular rate constant for reactivation and measure of the inherent reactivity of the oximate form of the reactivator in the conditions of 25degreeC,pH 7.6
[14] = Effective biomolecular rate constant at the concentration 0.500 mM [HOX] in the conditions of 25degreeC,pH 7.6; conditions: pH 7.6, 500 µM
[15] = Biomolecular rate constant for reactivation and measure of the inherent reactivity of the oximate form of the reactivator at the concentration 0.500 mM [HOX] in the conditions of 25degreeC,pH 7.6; conditions: pH 7.6, 500 µM
[16] = tested on: Anguilliformes; test: Concentration at 2 uM that inhibits 50%of acetylcholinesterase activity evaluated in vitro at a pH of 8 in the presence of 7.5x10E-4 acetylthiocholine; conditions: read-out: I50
[17] = tested on: Anguilliformes; test: Concentration at 1.50 uM that inhibits 50%of acetylcholinesterase activity evaluated in vitro at a pH of 8 in the presence of 7.5x10E-4 acetylthiocholine; conditions: read-out: I50

Compound | Kn [1] | Ko [2] | pKa [3] | K OX [5] | logP [6] | K HOX [7] | other results
O/N=C\c1cnsn1 | 3.45 M⁻¹ s⁻¹ | 0.00051 min⁻¹ | 9.45 | – | – | – | –
Cc1nsnc1/C=N\O | 3.95 M⁻¹ s⁻¹ | 0.00062 min⁻¹ | 9.61 | – | – | – | –
Cc1nonc1/C=N/O | 2.13 M⁻¹ s⁻¹ | 0.00027 min⁻¹ | 9.15 | – | – | – | Kn [4]: 0.225 M⁻¹ s⁻¹
CCN(CC)CCS/C(=N/O)c1cnsn1 | 0.427 M⁻¹ s⁻¹ | 0.00028 min⁻¹ | 7.69 | 0.857 M⁻¹ s⁻¹ | 0.74 | 23 | –
O/N=C/c1cnns1 | 0.712 M⁻¹ s⁻¹ | 0.00025 min⁻¹ | – | – | 0.72 | – | K HOX [8]: 7.02; K OX [9]: 0.242 M⁻¹ s⁻¹
Cc1noc(/C=N/O)n1 | 1.53 M⁻¹ s⁻¹ | 0.00024 min⁻¹ | 8.1 | 13.3 M⁻¹ s⁻¹ | 0.47 | 192 | –
CCN(CC)CCS/C(=N/O)c1nonc1C.Cl | 0.628 M⁻¹ s⁻¹ | 0.00028 min⁻¹ | 7.59 | 0.308 M⁻¹ s⁻¹ | 1.1 | 10.6 | –
Cc1nsc(/C=N/O)n1 | 0.0947 M⁻¹ s⁻¹ | 0.00025 min⁻¹ | – | – | 0.66 | – | K HOX [10]: 14.3; K OX [11]: 0.295 M⁻¹ s⁻¹
CCN(CC)CCS/C(=N/O)C(=O)c1ccc(Br)cc1.Cl | – | – | 7.44 | – | – | – | Kn [4]: 0.0187 M⁻¹ s⁻¹; K HOX [12]: 56.2; K OX [13]: 1.59 M⁻¹ s⁻¹
CCN(CC)CCS/C(=N\O)c1nnc(-c2ccccc2)o1.Cl | 0.038 M⁻¹ s⁻¹ | 0.00012 min⁻¹ | 6.35 | 0.11 M⁻¹ s⁻¹ | 1.13 | 6.42 | –
CCN(CC)CCS/C(=N/O)c1nsnc1C.Cl | 1.19 M⁻¹ s⁻¹ | 0.00028 min⁻¹ | 8.65 | 1.1 M⁻¹ s⁻¹ | 1.02 | 5.41 | –
O/N=C/c1nc(-c2ccccc2)no1 | 0.863 M⁻¹ s⁻¹ | 0.00031 min⁻¹ | – | – | 2.61 | – | K HOX [14]: 175; K OX [15]: 9.28 M⁻¹ s⁻¹
CCN(CC)CCS/C(=N\O)c1nc(C)no1 | 0.0635 M⁻¹ s⁻¹ | 0.00016 min⁻¹ | 6.3 | 0.0937 M⁻¹ s⁻¹ | – | 5.34 | –
CCN(CC)CCS/C(=N\O)c1nnc(-c2ccccc2)o1 | – | – | – | – | – | – | IC50 [16]: 22 µM
O/N=C/c1nnc(-c2ccccc2)o1 | 1.32 M⁻¹ s⁻¹ | 0.00015 min⁻¹ | 8.41 | 1.52 M⁻¹ s⁻¹ | 1.96 | 12.2 | –
C[n+]1ccccc1/C=N/O.[I-] | – | – | – | – | – | – | Kn [4]: 0.095 M⁻¹ s⁻¹; K HOX [12]: 2780; K OX [13]: 160 M⁻¹ s⁻¹
CCN(CC)CCS/C(=N\O)c1nc(-c2ccccc2)no1 | 0.0725 M⁻¹ s⁻¹ | 0.00026 min⁻¹ | – | 0.365 M⁻¹ s⁻¹ | 1.78 | 20.8 | Kn [4]: 0.00488 M⁻¹ s⁻¹; IC50 [17]: 7.5 µM
